# Target: Carbonic anhydrase (Saccharomyces cerevisiae S288c, UniProt P53615)
# Sequences of proteins named here, by UniProt entry; tags and fusion partners are left off. A change or cut given only in a name is not applied to a line headed by its entry.
# UniProt P53615: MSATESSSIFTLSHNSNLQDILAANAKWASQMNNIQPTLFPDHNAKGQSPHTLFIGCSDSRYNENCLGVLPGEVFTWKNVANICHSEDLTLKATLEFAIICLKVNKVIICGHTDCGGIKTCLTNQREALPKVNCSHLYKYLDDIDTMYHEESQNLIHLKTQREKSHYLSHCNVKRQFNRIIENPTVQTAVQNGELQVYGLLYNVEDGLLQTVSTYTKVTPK
# Experiment: Inhibition of Saccharomyces cerevisiae carbonic anhydrase overexpressed in Escherichia coli BL21 (DE3) by CO2 hydration stopped-flow assay
smiles,measurement,value
O=[As](O)(O)c1ccccc1,Ki,40 µM
